{
  "sequences": {"note": "Sequences of proteins named here, by UniProt entry; tags and fusion partners are left off.", "UniProt Q16539, whole entry": "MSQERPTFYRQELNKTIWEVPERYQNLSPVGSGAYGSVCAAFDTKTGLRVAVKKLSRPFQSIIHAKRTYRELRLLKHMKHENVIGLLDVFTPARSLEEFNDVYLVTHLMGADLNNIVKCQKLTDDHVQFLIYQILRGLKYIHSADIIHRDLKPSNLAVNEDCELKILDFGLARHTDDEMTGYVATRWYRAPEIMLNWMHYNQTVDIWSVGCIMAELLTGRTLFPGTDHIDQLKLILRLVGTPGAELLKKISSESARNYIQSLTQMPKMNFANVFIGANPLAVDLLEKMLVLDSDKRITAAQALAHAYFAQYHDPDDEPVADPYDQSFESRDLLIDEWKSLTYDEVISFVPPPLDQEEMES"},
  "source": "patent US6525059B1",
  "about": "“Substituted pyrazoles as p38 kinase inhibitors” (G. D. Searle & Company, priority 1998, dated 2003)",
  "key": {"[1]": {"molecular_target": "T1, human GST-p38 kinase alpha (Homo sapiens, UniProt Q16539)", "T1 construct": "The coding region of the human p38a cDNA was obtained by PCR-amplification from RNA isolated from the human monocyte cell line THP.1; made in house; host or cells: E. coli DH10B", "assay": "p38 kinase in vitro assay, second format, phosphorylation of EGFRP with 33P-ATP", "type": "biochemical", "conditions": "Table 8, 10% DMSO; read-out: p38α Kinase Assay IC50", "description": "A second assay format was also employed that is based on p38 kinase alpha induced phosphorylation of EGFRP (epidermal growth factor receptor peptide, a 21 mer) in the presence of ^33P-ATP. Compounds were tested in 10 fold serial dilutions over the range of 100 μM to 0.001 μM in 10% DMSO. Each concentration of inhibitor was tested in triplicate. Compounds were evaluated in 50 μl reaction volumes in the presence of 25 mM Hepes pH 7.5, 10 mM magnesium acetate, 4% glycerol, 0.4% bovine serum albumin, 0.4 mM DTT, 50 μM unlabeled ATP, 25 μg EGFRP (200 μM), and 0.05 uCi gamma ^33P-ATP. Reactions were initiated by addition of 0.09 μg of activated, purified human GST-p38 kinase alpha. Activation was carried out using GST-MKK6 (5:1, p38: MKK6) for one hour at 30° C. in the presence of 50 μM ATP. Following incubation for 60 minutes at room temperature, the reaction was stopped by addition of 150 μl of AG 1×8 resin in 900 mM sodium formate buffer, pH 3.0 (1 volume resin to 2 volumes buffer). The mixture was mixed three times with pipetting and the resin was allowed to settle. A total of 50 μl of clarified solution head volume was transferred from the reaction wells to Microlite-2 plates. 150 μl of Microscint 40 was then added to each well of the Microlite plate, and the plate was sealed, mixed, and counted."}, "[2]": {"molecular_target": "T2, human p38 kinase alpha (Homo sapiens, UniProt Q16539)", "T2 construct": "The coding region of the human p38a cDNA was obtained by PCR-amplification from RNA isolated from the human monocyte cell line THP.1; GST (N); made in house; host or cells: E. coli DH10B", "assay": "p38 kinase in vitro assay, phosphorylation of biotinylated PHAS-I with gamma 32P-ATP", "type": "biochemical", "description": "The ability of compounds to inhibit human p38 kinase alpha was evaluated using two in vitro assay methods. In the first method activated human p38 kinase alpha phosphorylates a biotinylated substrate, PHAS-I (phosphorylated heat and acid stable protein-insulin inducible), in the presence of gamma ^32P-ATP (^32P-ATP). PHAS-I was biotinylated prior to the assay and provides a means of capturing the substrate which is phosphorylated during the assay. p38 Kinase was activated by MKK6. Compounds were tested in 10 fold serial dilutions over the range of 100 μM to 0.001 μM using 1% DMSO. Each concentration of inhibitor was tested in triplicate.\nAll reactions were carried out in 96 well polypropylene plates. Each reaction well contained 25 mM HEPES pH 7.5, 10 mM magnesium acetate and 50 μM unlabeled ATP. […] The reaction proceeded either for one hour or overnight at 30° C.\nFollowing incubation, 20 μl of reaction mixture was transferred to a high capacity streptavidin coated filter plate (SAM-streptavidin-matrix, Promega) prewetted with phosphate buffered saline. […] Filter plates were air dried and 20 μl of scintillant was added. The plates were sealed and counted."}},
  "data": [
    {"compound": "CC1CN(c2[nH]nc(-c3ccc(Cl)cc3)c2-c2ccncc2)CC(C)N1", "note": "(centres unmarked) [Example A-342, 1-[5-(4-chlorophenyl)-4-(4-pyridinyl)-1H-pyrazol-3-yl]-3,5-dimethylpiperazine]", "values": [
      {"measurement": "IC50", "setting": "[1]", "value": 0.012, "unit": "µM"}
    ]},
    {"compound": "C[C@@H](NC(=O)c1cccc2ccccc12)c1[nH]nc(-c2ccc(F)cc2)c1-c1ccncc1", "note": "[Example B-0500]", "values": [
      {"measurement": "IC50", "setting": "[2]", "value": 0.26, "unit": "µM"}
    ]}
  ]
}
